Results published in patent US9902710B2, “Substituted 6, 7-dialkoxy-3-isoquinoline derivatives as inhibitors of phosphodiesterase 10 (PDE 10A)” (Allergan, Inc., priority 2013, dated 2018).

Molecular target: PDE10A
Assay: Diaxonhit phosphodiesterase assay (TR-FRET, LANCE cAMP kit), PDE10A
Format: biochemical
Experimental: Diaxonhit Phosphodiesterase Assay (PDE10A and PDE4D3)
The PDE assay is based on the homogenous time-resolved fluorescence resonance energy transfer (TR-FRET) technology (LANCE® from Perkin Elmer). […] When there is PDE activity, resulting in the degradation of the cyclic nucleotide, the complex is not formed and a decrease in signal is observed.
The phosphodiesterase assay was developed using the LANCE® cAMP kit (PerkinElmer). The assay buffer contained HBSS with 5 mM HEPES, 0.1% BSA, and 1.5 mM MgCl2, pH 7.4. […] Chemical compounds were dissolved in DMSO (final concentration 2% (v/v)).
In a 384-well plate, 2 μL of the inhibitor and 3 μL PDE were added to the well, followed by the addition of 5 μl substrate biotinylated cAMP (1:5). After 60 min incubation at room temperature, 10 μL of assay detection mixture was added to the assay plate. After 1 h at room temperature, the signal was measured on EnVision™ (PerkinElmer).

Question: With COc1cc2cncc(Cc3ccc4oc(-c5ccc(C(=O)O)cc5)nc4c3)c2cc1OC [Compound 146, 4-(5-((6,7-dimethoxyisoquinolin-4-yl)methyl)benzo[d]oxazol-2-yl)benzoic acid] as the molecule, how does the IC50 read?
Answer: 4.7 nM
